From PubChem BioAssay AID2592 (National Center for Advancing Translational Sciences (NCATS), 2010) come the findings set out here.

Chains of the proteins cited; added tags and fusions are not shown. Lines headed by an entry give the natural chain unless they say otherwise; changes in a name come on top.
UniProt P04062: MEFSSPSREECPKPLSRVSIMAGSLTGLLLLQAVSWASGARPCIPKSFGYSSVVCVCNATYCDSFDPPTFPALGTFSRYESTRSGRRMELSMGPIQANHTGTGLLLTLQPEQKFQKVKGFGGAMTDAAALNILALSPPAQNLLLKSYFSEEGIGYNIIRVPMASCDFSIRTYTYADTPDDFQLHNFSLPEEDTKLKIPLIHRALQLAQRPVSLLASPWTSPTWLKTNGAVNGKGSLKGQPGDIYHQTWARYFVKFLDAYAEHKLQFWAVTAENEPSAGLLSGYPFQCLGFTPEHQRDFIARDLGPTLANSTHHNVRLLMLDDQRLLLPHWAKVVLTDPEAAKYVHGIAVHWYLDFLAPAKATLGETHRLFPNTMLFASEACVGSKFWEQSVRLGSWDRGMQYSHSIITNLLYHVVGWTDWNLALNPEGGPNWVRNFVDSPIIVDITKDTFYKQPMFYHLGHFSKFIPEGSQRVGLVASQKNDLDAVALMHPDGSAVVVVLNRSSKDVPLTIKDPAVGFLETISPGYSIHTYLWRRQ

Molecules are shown by their SMILES. Only a part is listed here, and it is no random draw. Results filed as inconclusive are left out. The source made the active and inactive calls. Calls follow the shape of the dose curve; as a rule, active = well fitted inhibition curve with a large enough effect; inconclusive = small, poorly fitted or top-dose-only effect, or effect the other way; inactive = flat fitted curve, though single readings scatter.

This test has as its target Lysosomal acid glucosylceramidase (Homo sapiens) (UniProt P04062). In words: qHTS Assay for Inhibitors and Activators of N370S glucocerebrosidase as a Potential Chaperone Treatment of Gaucher Disease: Activity in Non-Mutant Spleen Homogenate. Particulars: human spleen homogenate GC, 4MU-glucoside fluorescence. The source says:
NIH Chemical Genomics Center [NCGC] NIH Molecular Libraries Probe Production Centers Network [MLPCN] MLPCN Grant: MH086442-01 Assay Submitter (PI): Wei Zheng Glucocerebrosidase (GC) catalyzes the hydrolysis of beta-glucocerebroside to glucose and ceramide in lysosomes. Mutations in the glucocerebrosidase gene result in Gaucher disease, an autosomal recessive lysosomal storage disorder. Many of the mutations encountered in patients with Gaucher disease are missense alterations that may cause misfolding, decreased stability and/or mistrafficking of this lysosomal protein. […]
NCGC Assay Protocol Summary: This is a fluorogenic enzyme assay with 4-methylumbelliferyl-beta-D-glucopyranoside as the substrate and wildtype glucocerebrosidase from human spleen homogenate as the enzyme preparation. Upon the hydrolysis of this fluorogenic substrate, the resulting product, […] which can be detected by a standard fluorescence plate reader. […] The AC50 values were determined from concentration-response data modeled with the standard Hill equation. […] (5) Add 2 ul stop solution (1M NaOH and 1M Glycine mixture, pH 10) (6) Detect the assay plate in a ViewLux plate reader (PerkinElmer) with Ex=365 nm and Em=440nm. […]
(In qHTS, concentration-response curves come from the screen itself.)
As for `COc1ccc(Cl)cc1Nc1nc(NCCO)nc(N2CCCC2)n1`, the Potency was active: 7.94 µM.
